Laboratory results: paper PMC9706574, “A Versatile and Sustainable Multicomponent Platform for the Synthesis of Protein Degraders: Proof-of-Concept Application to BRD4-Degrading PROTACs” (Journal of Medicinal Chemistry, 2022)

Molecular target: BRD4 (Homo sapiens, UniProt O60885)
Test: BRD4 degradation by Western blot analysis in MDA-MB-231 cells
Conditions: 1 μM

Compound | Densitometry (% of control), BRD4-immunoreactive band relative to DMSO vehicle (4 h) | Densitometry (% of control), BRD4-immunoreactive band relative to DMSO vehicle (8 h) | BRD4 degradation in time-course experiments (in words) (4 up to 24 h)
Cc1ncsc1-c1ccc(CNC(=O)[C@@H]2C[C@H](O)CN2C(=O)[C@@H](NC(=O)COCCOCCOCCNC(=O)C[C@@H]2N=C(c3ccc(Cl)cc3)c3c(sc(C)c3C)-n3c(C)nnc32)C(C)(C)C)cc1 (relative stereo) [cis-MZ1, reference compound] | 51,7 % of control | 83,6 % of control | –
Cc1ncsc1-c1ccc(CNC(=O)[C@@H]2C[C@@H](O)CN2C(=O)[C@@H](NC(=O)COCCOCCOCCNC(=O)C[C@@H]2N=C(c3ccc(Cl)cc3)c3c(sc(C)c3C)-n3c(C)nnc32)C(C)(C)C)cc1 [MZ1, reference compound] | 10,7 % of control | 8,5 % of control | acted as a BRD4 degrader
